Laboratory results taken from US10526311B2 (ASTEX THERAPEUTICS LIMITED, priority 2015, dated 2020).
Like-named read-outs stand apart in the source and are kept apart here. Values belong to the compound of their own block, whether it stands above or below them.

Assays:
SJSA-1 = experiment: Protocol B: SJSA-1 CellTiter-Glo cell viability
[1] = test system: SJSA-1 (MDM2 amplified, p53 wild-type osteosarcoma); experiment: Protocol A: SJSA-1 growth inhibition (SRB); conditions: Homo sapiens, SJSA-1, 72 h
[2] = read-out: SJSA1 IC50 (μM) (Protocol B), SJSA-1, Protocol B (CellTiter-Glo), 72 hrs
[3] = read-out: SJSA-1 IC50 (μM) (Protocol A)
[4] = read-out: SJSA-1 IC50 (μM) (Protocol A), SJSA-1, Protocol A (SRB), 72 hrs

SMILES: CC(O)(c1cc(F)c2c(c1)C(=O)N(Cc1ncc(Cl)cn1)[C@@]2(OCC1(CO)CC1)c1ccc(Cl)cc1)[C@H]1CC[C@H](O)CC1 (single isomer, unassigned) [Example 402]
IC50 (SJSA-1; [2]): 0.21 µM

SMILES: CCC(O)(c1cc(F)c2c(c1)C(=O)N(Cc1ncc(Cl)cc1O)[C@@]2(OCCO)c1ccc(Cl)cc1)c1cn(C)cn1 (single isomer, unassigned) [Example 443]
IC50 [1, 3]: 0.11 µM

SMILES: CCC(O)(c1cc(F)c2c(c1)C(=O)N(Cc1ccc(C#N)cn1)[C@@]2(O[C@H]1CCOC1)c1ccc(Cl)cc1)C1(F)CCOCC1 (single isomer, unassigned) [Example 445]
IC50 (SJSA-1; [2]): 3.3 µM

SMILES: CCC(O)(c1cc(F)c2c(c1)C(=O)N(Cc1ccc(C#N)cn1)[C@@]2(O[C@H]1CCOC1)c1ccc(Cl)cc1)C1(F)CCOCC1 (single isomer, unassigned) [Example 446]
IC50 [1, 3]: 0.018 µM

IC50 [1, 4]: 0.025 µM
SMILES: CCC(O)(c1cc(F)c2c(c1)C(=O)N(Cc1ncc(Cl)cn1)[C@@]2(OC)c1ccc(Cl)cc1)C1(F)CCN(C)CC1 (single isomer, unassigned) [Example 563]

IC50 [1, 4]: 0.018 µM
SMILES: CCC(O)(c1cc(F)c2c(c1)C(=O)N(Cc1ncc(Cl)cn1)[C@@]2(OCC1(C#N)CC1)c1ccc(Cl)cc1)C1(F)CCN(C)CC1 (single isomer, unassigned) [Example 564]

IC50 [1, 4]: 0.019 µM
SMILES: CCC(O)(c1cc(F)c2c(c1)C(=O)N(Cc1ncc(Cl)cn1)[C@@]2(OC[C@@H](C)O)c1ccc(Cl)cc1)C1(F)CCN(C)CC1 (single isomer, unassigned) [Example 572]

SMILES: CCC(O)(c1cc(F)c2c(c1)C(=O)N(Cc1ncc(C#N)cn1)[C@@]2(O[C@H]1CCOC1)c1ccc(Cl)cc1)c1cn(C)cn1 (stereo partly drawn) [Example 370, 2-{[(1R)-1-(4-chlorophenyl)-7-fluoro-5-[1-hydroxy-1-(1-methyl-1H-imidazol-4-yl)propyl]-3-oxo-1-[(3S)-oxolan-3-yloxy]-2,3-dihydro-1H-isoindol-2-yl]methyl}pyrimidine-5-carbonitrile]
IC50 (SJSA-1; Homo sapiens, SJSA-1, 72 h, read-out: SJSA1 IC50 (μM) (Protocol B), SJSA-1, Protocol B (CellTiter-Glo), 72 hrs): 3.5 µM
